Results: patent US20050164951A1, “Inhibitors for the soluble epoxide hydrolase” (The Regents of the University of California, priority 2003, published 2005)
Read-outs that look alike come from different tables or passages of the source. Blank lines part the entries; values can stand above or below the compound they belong to.

Chains of the proteins cited; added tags and fusions are not shown. Lines headed by an entry give the natural chain unless they say otherwise; changes in a name come on top.
UniProt P34914: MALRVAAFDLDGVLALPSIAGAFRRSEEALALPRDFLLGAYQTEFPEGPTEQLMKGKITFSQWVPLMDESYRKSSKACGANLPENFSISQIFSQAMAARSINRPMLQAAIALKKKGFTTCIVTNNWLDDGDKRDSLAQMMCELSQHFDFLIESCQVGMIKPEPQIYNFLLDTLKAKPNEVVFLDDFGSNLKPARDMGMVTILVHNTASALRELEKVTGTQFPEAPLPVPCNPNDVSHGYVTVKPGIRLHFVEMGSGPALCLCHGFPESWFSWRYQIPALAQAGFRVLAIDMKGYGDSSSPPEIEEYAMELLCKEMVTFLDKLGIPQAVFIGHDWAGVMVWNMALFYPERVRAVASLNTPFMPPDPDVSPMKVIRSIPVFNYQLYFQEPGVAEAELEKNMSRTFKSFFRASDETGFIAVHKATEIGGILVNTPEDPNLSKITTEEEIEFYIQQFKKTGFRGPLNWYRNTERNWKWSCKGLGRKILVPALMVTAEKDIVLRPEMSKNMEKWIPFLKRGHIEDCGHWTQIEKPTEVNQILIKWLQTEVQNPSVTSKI
UniProt P34913, whole entry: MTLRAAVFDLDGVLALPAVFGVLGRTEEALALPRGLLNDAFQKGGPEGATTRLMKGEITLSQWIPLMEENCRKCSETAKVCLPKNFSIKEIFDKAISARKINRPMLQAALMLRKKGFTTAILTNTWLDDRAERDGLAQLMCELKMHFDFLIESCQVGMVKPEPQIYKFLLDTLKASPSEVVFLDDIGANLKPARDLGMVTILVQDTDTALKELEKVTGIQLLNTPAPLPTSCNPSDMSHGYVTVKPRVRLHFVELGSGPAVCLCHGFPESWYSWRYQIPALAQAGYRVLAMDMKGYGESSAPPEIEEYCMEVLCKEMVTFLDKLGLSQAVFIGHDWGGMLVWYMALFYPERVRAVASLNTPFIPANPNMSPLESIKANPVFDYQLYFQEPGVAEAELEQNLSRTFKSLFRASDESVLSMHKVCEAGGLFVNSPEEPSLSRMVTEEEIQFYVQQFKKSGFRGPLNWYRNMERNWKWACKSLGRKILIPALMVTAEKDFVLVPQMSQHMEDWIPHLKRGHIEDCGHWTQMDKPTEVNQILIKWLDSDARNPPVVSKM

Columns and labels:
[1] = molecular target: T1, mouse sEH (Mus musculus, UniProt P34914); test: Inhibition of recombinant mouse sEH, IC50 assay with 4-nitrophenyl-trans-2,3-epoxy-3-phenylpropyl carbonate as substrate; assay type: biochemical
T1 construct: made in house; host or cells: baculovirus expression system

[2] = molecular target: human sEH (Homo sapiens, UniProt P34913); test: Inhibition of recombinant human sEH, IC50 assay with 4-nitrophenyl-trans-2,3-epoxy-3-phenylpropyl carbonate as substrate
[3] = Pharmacokinetics after oral gavage in mice; details: 5 mg/kg orally
[4] = tested on: mouse and human sEH; test: sEH IC50 assay, comparisons of the text made for both enzymes or without naming the enzyme; assay type: biochemical
[5] = Table 4, […] enzyme, 5 min preincubation, pH 7.4, 30° C., means ± SD, read-out: IC50 (μM) Mouse sEH
[6] = read-out: IC50 (μM) Human sEH, pH 7.4
[7] = read-out: IC50 (μM) Mouse sEH, Table 4, […] enzyme, 5 min preincubation, pH 7.4, 30° C., means ± SD

SMILES: CCCCOC(=O)CCCCCCCCCCCNC(=O)NC12CC3CC(CC(C3)C1)C2 [Compound 800, 1-(1-Adamantyl)-3-(11-butoxycarbonylundecyl)urea]
IC50 [1, 5]: 0.05 ± 0.01 µM
IC50 [2, 6]: 0.1 ± 0.01 µM

SMILES: CC(C)COC(=O)CCCCCCCCCCCNC(=O)NC12CC3CC(CC(C3)C1)C2 [Compound 803, 1-(1-Adamantyl)-3-(11-isobutoxycarbonylundecyl)urea]
IC50 [1, 7]: 0.05 ± 0.01 µM

SMILES: CC(C)OC(=O)CCCCCCCCCCCNC(=O)NC12CC3CC(CC(C3)C1)C2 [Compound 785, 1-(1-Adamantyl)-3-(11-iso-propoxycarbonylundecyl)urea]
IC50 [1, 7]: 0.05 ± 0.01 µM
AUC (bioavailability), fold increase over 687 [3]: similar

IC50 [1, 5]: 0.05 ± 0.01 µM
SMILES: C=CCOC(=O)CCCCCCCCCCCNC(=O)NC12CC3CC(CC(C3)C1)C2 [Compound 781, 1-(1-Adamantyl)-3-(11-allyloxycarbonylundecyl)urea]

IC50 [1, 5]: 0.05 ± 0.01 µM
SMILES: CCCOC(=O)CCCCCCCCCCCNC(=O)NC12CC3CC(CC(C3)C1)C2 [Compound 783, 1-(1-Adamantyl)-3-(11-propoxycarbonylundecyl)urea]

IC50 [1, 5]: 0.05 ± 0.01 µM
SMILES: C#CCOC(=O)CCCCCCCCCCCNC(=O)NC12CC3CC(CC(C3)C1)C2 [Compound 788, 1-(1-Adamantyl)-3-(11-propagyloxycarbonylundecyl)urea]

SMILES: CC(C)NC(=O)CCCCCCCCCCCNC(=O)NC12CC3CC(CC(C3)C1)C2 [Compound 793, 1-(1-Adamantyl)-3-(11-isopropylaminocarbonylundecyl)urea]
IC50 [2, 6]: 0.1 ± 0.01 µM

SMILES: O=C(NCCCCCCCCCCCC(=O)OCc1ccccc1Cl)NC12CC3CC(CC(C3)C1)C2 [Compound 782, 1-(1-Adamantyl)-3-(11-(2-chlorobenzyl)oxycarbonylundecyl)urea]
IC50 [1]: 0.1 ± 0.01 µM
IC50 [2]: 0.29 ± 0.01 µM

SMILES: O=C(NCCCCCCCCCCCC(=O)OCc1cccc2ccccc12)NC12CC3CC(CC(C3)C1)C2 [Compound 787, 1-(1-Adamantyl)-3-(11-(1-naphthyl)methoxycarbonylundecyl)urea]
IC50 [1]: 0.09 ± 0.01 µM
IC50 [2]: 0.21 ± 0.01 µM

SMILES: CC(C)(C)OC(=O)CCCCCCCCCCCNC(=O)NC12CC3CC(CC(C3)C1)C2 [Compound 801]
IC50 [1, 5]: 0.05 ± 0.01 µM
IC50 [2, 6]: 0.1 ± 0.01 µM

SMILES: CCC(C)OC(=O)CCCCCCCCCCCNC(=O)NC12CC3CC(CC(C3)C1)C2 (stereo not drawn) [Compound 802, 1-(1-Adamantyl)-3-(11-sec-butoxycarbonylundecyl)urea]
IC50 [1, 5]: 0.05 ± 0.01 µM
AUC (bioavailability), fold increase over 687 [3]: similar

inhibition of both the mouse and human enzymes [4]: excellent inhibitor
SMILES: O=C(O)CCCCCCCCCCCNC(=O)NC12CC3CC(CC(C3)C1)C2 [Compound 687, 1-(1-adamantyl)-3-(12-dodecanoic acid)urea]
